In the assay the target is human TRPV4 (Homo sapiens (Human), UniProt Q9HBA0). Nature of the assay: FLIPR assay for hTRPV4 expressed in BHK cells. It counts as cell-based. As to the method: FLIPR Assay for hTRPV4 Expressed in BHK Cells:
TRPV4 channel activation results in an influx of divalent and monovalent cations including calcium. The resulting changes in intracellular calcium were monitored using a calcium specific fluorescent dye Fluo-4 (MDS Analytical Technologies). BHK/AC9 cells transduced with BacMam virus expressing the human TRPV4 gene at a MOI of 78 were plated in a 384 well poly-D lysine coated plate (15,000 cells/well in 50 μL culture medium containing DMEM/F12 with 15 mM HEPES, 10% FBS, 1% Penicillin-Streptomycin and 1% L-glutamine). Cells were incubated for 24 hours at 37° C. and 5% CO2. Culture medium was then aspirated using a Tecan plate-washer and replaced with 20 μL/well of dye loading buffer: HBSS, 500 μM Brilliant Black (MDS Analytical Technologies), and 2 μM Fluo-4 AM. Dye loaded plates were then incubated in the dark at room temperature for 1˜1.5 hours.

The chains behind the UniProt entries cited, without tags or fusion partners.
UniProt Q9HBA0, whole entry: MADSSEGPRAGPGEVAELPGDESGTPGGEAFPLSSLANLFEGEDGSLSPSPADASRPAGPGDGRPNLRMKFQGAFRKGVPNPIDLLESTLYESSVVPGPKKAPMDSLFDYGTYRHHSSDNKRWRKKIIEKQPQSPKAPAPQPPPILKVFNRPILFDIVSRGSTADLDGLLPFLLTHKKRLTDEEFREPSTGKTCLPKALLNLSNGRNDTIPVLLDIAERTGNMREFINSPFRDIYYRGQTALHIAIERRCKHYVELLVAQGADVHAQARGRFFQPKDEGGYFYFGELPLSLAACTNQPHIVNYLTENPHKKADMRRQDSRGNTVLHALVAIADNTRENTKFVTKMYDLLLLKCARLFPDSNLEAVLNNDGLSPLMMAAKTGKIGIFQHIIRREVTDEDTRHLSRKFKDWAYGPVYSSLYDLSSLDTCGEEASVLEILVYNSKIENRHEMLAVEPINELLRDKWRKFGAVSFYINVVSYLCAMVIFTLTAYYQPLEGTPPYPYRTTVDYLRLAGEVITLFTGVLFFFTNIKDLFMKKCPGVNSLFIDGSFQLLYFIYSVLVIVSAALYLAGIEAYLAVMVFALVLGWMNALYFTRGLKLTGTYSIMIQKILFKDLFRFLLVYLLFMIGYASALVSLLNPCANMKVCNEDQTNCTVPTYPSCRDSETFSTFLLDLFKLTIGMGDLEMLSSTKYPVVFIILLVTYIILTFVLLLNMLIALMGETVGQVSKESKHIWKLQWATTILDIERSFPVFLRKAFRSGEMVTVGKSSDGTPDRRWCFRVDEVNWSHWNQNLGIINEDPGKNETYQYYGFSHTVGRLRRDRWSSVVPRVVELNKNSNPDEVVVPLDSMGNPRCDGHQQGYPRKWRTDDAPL

pIC50: −log10 of the molar value.

Usually pIC50 stands for the IC50 on a negative log10 scale, so that one unit is a factor of ten.

`N#Cc1ccc(S(=O)(=O)N2C[C@H](S(=O)(=O)c3ccc(Cl)cc3)[C@](O)(CN)C2)c(Cl)c1` [Example 123, 4-(((3S,4S)-3-(aminomethyl)-4-((4-chlorophenyl)sulfonyl)-3-hydroxypyrrolidin-1-yl)sulfonyl)-3-chlorobenzonitrile]: the pIC50 is 8.00 to 10.00.
Take `N#Cc1ccc(S(=O)(=O)N2C[C@H](S(=O)(=O)c3ccc(Cl)cc3)[C@@](O)(CN)C2)c(Cl)c1` [Example 122, 4-(((3R,4S)-3-(aminomethyl)-4-((4-chlorophenyl)sulfonyl)-3-hydroxypyrrolidin-1-yl)sulfonyl)-3-chlorobenzonitrile]: the negative-log IC50 (pIC50) was 8.00 to 10.00.

The values above are taken from patent publication US11260049B2, “TRPV4 antagonists” (GlaxoSmithKline Intellectual Property (No. 2) Limited, priority 2016, dated 2022).
